In the data set the test system is male Zucker Diabetic Fatty (ZDF) rats. Particulars: daily i.p.; rosiglitazone 6 mg/kg/day.

Each structure is given as a SMILES string.

For the compound `CN(CCOc1ccc(CC2SC(=O)NC2=O)cc1)c1ccccn1` (stereo not shown) [Rosiglitazone], the “body mass at the end of the 6 week study” value is recorded as “over 550 grams”.

Source of the values: patent US20100297020A1, “PHOSPHORYLATED AND PHOSPHONATED PYRONE ANALOGS FOR THERAPEUTIC TREATMENT” (Limerick Biopharma, Inc., priority 2008, published 2010).
